Assay results reported in PMC11613296, “Post-Translational Modifications Control Phase Transitions of Tau” (ACS Central Science, 2024).

Molecular target: T1, 2N4R Tau(2–441) (human, UniProt P10636-8)
T1 construct: microtubule-associated protein Tau, 2N4R isoform, residues 2-441; numbers count on: 2N4R Tau; the Supporting Information may tell; also called recombinant 2N4R Tau; source: recombinant
Assay: ELISA; Tau(291–391) proteoforms immobilised on a PVC plate, recombinant 2N4R Tau(2–441) in solution, detected with Tau-13 mAb (residues 15–25) and anti-mouse IgG HRP; Langmuir binding curves, apparent KD, three replicates
Conditions: both partners purified

binding result | Binder
binds | Tau(291–391) GlcNAcN359 + AcK353 (peptide, UniProt P10636-8 291-391, looked up, N-acetyl glucosamine on N359; N-acetyllysine at 353, microtubule-associated protein Tau, residues 291-391; numbers count on: 2N4R Tau; also called GlcNAcK359 + AcK353; source: synthetic: chemical protein synthesis (SPPS of three segments, DSL and NCL), HPLC purified) CGSKDNIKHVPGGGSVQIVYKPVDLSKVTSKCGSLGNIHHKPGGGQVEVKSEKLDFKDRVQSKIGSLDNITHVPGGGNKKIETHKLTFRENAKAKTDHGAE
binds | Tau(291–391) GlcNAcN359 + pS305 (peptide, UniProt P10636-8 291-391, looked up, N-acetyl glucosamine on N359; phosphoserine at 305, microtubule-associated protein Tau, residues 291-391; numbers count on: 2N4R Tau; source: synthetic: chemical protein synthesis (SPPS of three segments, DSL and NCL), HPLC purified) CGSKDNIKHVPGGGSVQIVYKPVDLSKVTSKCGSLGNIHHKPGGGQVEVKSEKLDFKDRVQSKIGSLDNITHVPGGGNKKIETHKLTFRENAKAKTDHGAE
